Biological target: recombinant human CCR5 receptor (Homo sapiens, UniProt P51681)
Test: MIP-1α radioligand binding assay (scintillation proximity), CHO cell membranes
Details: Pic50, negative log (base 10) of IC50 (M); displacement of 0.1 nM iodinated MIP-1α; CHO membranes with recombinant human CCR5; average if tested more than once

Chains of the proteins cited; added tags and fusions are not shown.
UniProt P51681, whole entry: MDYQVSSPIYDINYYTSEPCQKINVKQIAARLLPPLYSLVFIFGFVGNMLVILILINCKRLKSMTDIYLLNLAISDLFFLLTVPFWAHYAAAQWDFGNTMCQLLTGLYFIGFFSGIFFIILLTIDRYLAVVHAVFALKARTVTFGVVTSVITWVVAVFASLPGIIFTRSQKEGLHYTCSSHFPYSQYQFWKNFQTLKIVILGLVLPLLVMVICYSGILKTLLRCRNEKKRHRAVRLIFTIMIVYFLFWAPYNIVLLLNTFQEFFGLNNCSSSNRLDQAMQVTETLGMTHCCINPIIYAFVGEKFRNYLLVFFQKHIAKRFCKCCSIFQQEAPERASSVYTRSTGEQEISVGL

Structure (SMILES): CCN(C(=O)Cc1ccc(S(C)(=O)=O)cc1)C1CCN(CC[C@@H](c2ccc(F)cc2)c2ccc(S(C)(=O)=O)cc2)CC1 [Compound No. 52]
- IC50: 4.57e-08 M

From patent publication US20050014788A1, “Piperidine derivatives and their use as modulators of chemokine receptor activity (especially ccr5)” (priority 2001, published 2005)
